Measured values published in ChEMBL document CHEMBL1146752, “Oxamyl dipeptide caspase inhibitors developed for the treatment of stroke” (Bioorg Med Chem Lett, 2004).

Sequences of proteins named here, by UniProt entry; tags and fusion partners are left off. A change or cut given only in a name is not applied to a line headed by its entry.
UniProt Q14790: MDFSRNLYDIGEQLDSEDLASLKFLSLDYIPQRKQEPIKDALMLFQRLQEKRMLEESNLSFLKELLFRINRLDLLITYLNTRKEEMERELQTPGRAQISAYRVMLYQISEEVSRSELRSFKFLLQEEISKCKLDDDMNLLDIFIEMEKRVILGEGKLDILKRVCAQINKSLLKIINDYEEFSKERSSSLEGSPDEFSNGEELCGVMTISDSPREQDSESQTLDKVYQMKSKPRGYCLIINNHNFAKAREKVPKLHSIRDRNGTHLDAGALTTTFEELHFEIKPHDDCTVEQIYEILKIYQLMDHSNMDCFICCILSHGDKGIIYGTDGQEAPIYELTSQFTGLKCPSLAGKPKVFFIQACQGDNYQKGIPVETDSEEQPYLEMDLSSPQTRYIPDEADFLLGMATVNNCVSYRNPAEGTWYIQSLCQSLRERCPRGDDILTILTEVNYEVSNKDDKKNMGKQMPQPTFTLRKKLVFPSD

Key:
[1] = molecular target: T1, Caspase-6 (Homo sapiens) (UniProt P55212)
T1 sequence (whole entry): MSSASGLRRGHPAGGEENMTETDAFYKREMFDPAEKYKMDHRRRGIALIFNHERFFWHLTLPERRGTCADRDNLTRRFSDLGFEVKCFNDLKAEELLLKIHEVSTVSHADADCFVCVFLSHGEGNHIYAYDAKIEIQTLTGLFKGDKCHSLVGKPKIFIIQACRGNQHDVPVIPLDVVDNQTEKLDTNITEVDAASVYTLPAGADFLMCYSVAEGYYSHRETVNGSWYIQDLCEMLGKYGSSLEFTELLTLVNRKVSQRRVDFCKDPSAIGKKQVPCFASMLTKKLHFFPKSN

[2] = molecular target: T2, Caspase-3 (Homo sapiens) (UniProt P42574)
T2 sequence (whole entry): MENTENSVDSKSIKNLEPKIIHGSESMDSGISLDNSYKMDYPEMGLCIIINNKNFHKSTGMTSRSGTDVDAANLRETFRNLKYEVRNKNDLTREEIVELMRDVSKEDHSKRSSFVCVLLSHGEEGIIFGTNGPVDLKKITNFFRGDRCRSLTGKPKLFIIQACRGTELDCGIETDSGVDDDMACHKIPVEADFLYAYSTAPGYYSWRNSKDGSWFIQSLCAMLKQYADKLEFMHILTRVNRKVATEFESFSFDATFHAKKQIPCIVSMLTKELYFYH

[3] = molecular target: T3, Caspase-1 (Mus musculus) (UniProt P29452)
T3 sequence (whole entry): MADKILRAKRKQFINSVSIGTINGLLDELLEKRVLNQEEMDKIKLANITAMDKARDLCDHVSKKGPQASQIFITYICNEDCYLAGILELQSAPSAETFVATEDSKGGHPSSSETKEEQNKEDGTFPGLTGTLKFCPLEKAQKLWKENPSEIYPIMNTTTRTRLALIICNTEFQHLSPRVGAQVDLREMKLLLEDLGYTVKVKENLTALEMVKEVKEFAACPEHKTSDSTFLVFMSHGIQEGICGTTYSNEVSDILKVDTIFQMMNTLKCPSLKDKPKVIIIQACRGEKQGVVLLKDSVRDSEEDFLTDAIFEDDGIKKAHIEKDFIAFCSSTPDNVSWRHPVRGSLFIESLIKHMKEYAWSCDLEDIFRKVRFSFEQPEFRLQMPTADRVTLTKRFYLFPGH

[4] = molecular target: Caspase-8 (Homo sapiens, UniProt Q14790)

Compound | k3/Ki [1] [M⁻¹ s⁻¹] | k3/Ki [2] [M⁻¹ s⁻¹] | k3/Ki [3] [M⁻¹ s⁻¹] | k3/Ki [4] [M⁻¹ s⁻¹]
CC(C)[C@H](NC(=O)C(=O)Nc1cccc2c1CCCC2)C(=O)N[C@@H](CC(=O)O)C(=O)COc1c(F)c(F)cc(F)c1F | 132000 | 139000 | 905000 | 1.15e+06
CC(C)[C@H](NC(=O)C(=O)Nc1cccc(Oc2ccccc2)c1)C(=O)N[C@@H](CC(=O)O)C(=O)COc1c(F)c(F)cc(F)c1F | 186000 | 245000 | 191000 | 82700
O=C(O)C[C@H](NC(=O)C1Cc2ccccc2N1C(=O)C(=O)Nc1cccc2ccccc12)C(=O)COc1c(F)c(F)cc(F)c1F (stereo partly specified) | 5580 | 511 | 912 | 1140
CC(C)[C@H](NC(=O)C(=O)Nc1ccccc1-c1ccccc1)C(=O)N[C@@H](CC(=O)O)C(=O)COc1c(F)c(F)cc(F)c1F | 335000 | 158000 | 2.59e+06 | 1.27e+06
CC(C)[C@H](NC(=O)C(=O)NN(c1ccccc1)c1ccccc1)C(=O)N[C@@H](CC(=O)O)C(=O)COc1c(F)c(F)cc(F)c1F | 131000 | 169000 | 1.23e+06 | 667000
CC(C)[C@H](NC(=O)C(=O)Nc1ccc(F)cc1)C(=O)N[C@@H](CC(=O)O)C(=O)COc1c(F)c(F)cc(F)c1F | 247000 | 8.16e+06 | 106000 | 179000
CC(C)[C@H](NC(=O)C(=O)Nc1ccc2c(c1)CCC2)C(=O)N[C@@H](CC(=O)O)C(=O)COc1c(F)c(F)cc(F)c1F | 146000 | 189000 | 289000 | 306000
CC(C)[C@H](NC(=O)C(=O)Nc1ccccc1Cl)C(=O)N[C@@H](CC(=O)O)C(=O)COc1c(F)c(F)cc(F)c1F | 655000 | 1.17e+06 | 2.02e+06 | 2.14e+06
CC(C)[C@H](NC(=O)C(=O)Nc1ccccc1Cc1ccccc1)C(=O)N[C@@H](CC(=O)O)C(=O)COc1c(F)c(F)cc(F)c1F | 214000 | 187000 | 1.16e+06 | 936000
COc1ccccc1NC(=O)C(=O)N[C@H](C(=O)N[C@@H](CC(=O)O)C(=O)COc1c(F)c(F)cc(F)c1F)C(C)C | 98500 | 100000 | 369000 | 441000
CC(C)[C@H](NC(=O)C(=O)Nc1cccc2ccccc12)C(=O)N[C@@H](CC(=O)O)C(=O)COc1cccc2ccccc12 | 268 | 11700 | 378000 | 12
COC(=O)c1cc(OCC(=O)[C@H](CC(=O)O)NC(=O)[C@@H](NC(=O)C(=O)Nc2cccc3ccccc23)C(C)C)no1 | 12800 | 264000 | 532000 | 88800
O=C(O)C[C@H](NC(=O)C1CCCCN1C(=O)C(=O)Nc1cccc2ccccc12)C(=O)COc1c(F)c(F)cc(F)c1F (stereo partly specified) | 11600 | 9850 | 36000 | 19500
CC(C)[C@H](NC(=O)C(=O)Nc1ccc2cc3ccccc3cc2c1)C(=O)N[C@@H](CC(=O)O)C(=O)COc1c(F)c(F)cc(F)c1F | 191000 | 142000 | 43300 | 39100
CC(C)[C@H](NC(=O)C(=O)Nc1ccccc1)C(=O)N[C@@H](CC(=O)O)C(=O)COc1c(F)c(F)cc(F)c1F | 275000 | 327000 | 159000 | 282000
CC(C)[C@H](NC(=O)C(=O)N(C)c1cccc2ccccc12)C(=O)N[C@@H](CC(=O)O)C(=O)COc1c(F)c(F)cc(F)c1F | 78 | 2 | 236 | 0
CC(C)[C@H](NC(=O)C(=O)Nc1ccccn1)C(=O)N[C@@H](CC(=O)O)C(=O)COc1c(F)c(F)cc(F)c1F | 64100 | 118000 | 22000 | 42200
CC(C)[C@H](NC(=O)C(=O)NN(C(=O)c1ccccc1)c1ccccc1)C(=O)N[C@@H](CC(=O)O)C(=O)COc1c(F)c(F)cc(F)c1F | 124000 | 104000 | 5.59e+06 | 526000
CC(C)[C@H](NC(=O)C(=O)Nc1cc(C(C)(C)C)ccc1C(C)(C)C)C(=O)N[C@@H](CC(=O)O)C(=O)COc1c(F)c(F)cc(F)c1F | 308000 | 104000 | 211000 | 1.34e+06
CC(C)[C@H](NC(=O)C(=O)Nc1cccc2ccccc12)C(=O)N[C@@H](CC(=O)O)C(=O)COc1ccnc(C(F)(F)F)n1 | 13300 | 294000 | 1.07e+06 | 60300

Compound | k3/Ki [1] [M⁻¹ s⁻¹] | k3/Ki [2] [M⁻¹ s⁻¹] | k3/Ki [3] [M⁻¹ s⁻¹] | k3/Ki [4] [M⁻¹ s⁻¹]
CC(C)[C@H](NC(=O)C(=O)Nc1ccccc1C(C)(C)C)C(=O)N[C@@H](CC(=O)O)C(=O)COc1c(F)c(F)cc(F)c1F | 424000 | 268000 | 956000 | 230000
COc1cc(CNC(=O)C(=O)N[C@H](C(=O)N[C@@H](CC(=O)O)C(=O)COc2c(F)c(F)cc(F)c2F)C(C)C)cc(OC)c1OC | 120000 | 157000 | 315000 | 71800
CC(C)[C@H](NC(=O)C(=O)Nc1cccc2ccccc12)C(=O)N[C@@H](CC(=O)O)C(=O)COc1c(F)c(F)cc(F)c1F | – | 289000 | – | 448000
CC(C)[C@H](NC(=O)C(=O)Nc1cccc2ccccc12)C(=O)N[C@@H](CC(=O)O)C(=O)COP(=O)(c1ccccc1)c1ccccc1 | 222000 | 876000 | 2.95e+06 | 2.45e+06
CC(C)[C@H](NC(=O)C(=O)Nc1cccc2ccccc12)C(=O)N[C@@H](CC(=O)O)C(=O)COS(=O)c1ccccc1 (stereo partly specified) | 459 | 342 | 2970 | 1
CC(C)[C@H](NC(=O)C(=O)Nc1c(F)cccc1F)C(=O)N[C@@H](CC(=O)O)C(=O)COc1c(F)c(F)cc(F)c1F | 281000 | 323000 | 278000 | 396000
CC(C)[C@H](NC(=O)C(=O)Nc1cccc2ccccc12)C(=O)N[C@@H](CC(=O)O)C(=O)COc1ccc(-c2ccccc2)cc1 | 0 | 1660 | 58000 | 0
CC(C)C[C@H](NC(=O)C(=O)Nc1cccc2ccccc12)C(=O)N[C@@H](CC(=O)O)C(=O)COc1c(F)c(F)cc(F)c1F | – | 180000 | – | 177000
CC(C)[C@H](NC(=O)C(=O)NC12CC3CC(CC(C3)C1)C2)C(=O)N[C@@H](CC(=O)O)C(=O)COc1c(F)c(F)cc(F)c1F | 129000 | 68900 | 172000 | 155000
CC(C)[C@H](NC(=O)C(=O)Nc1ccc(I)cc1F)C(=O)N[C@@H](CC(=O)O)C(=O)COc1c(F)c(F)cc(F)c1F | 133000 | 207000 | > 1e+07 | 84000
CC(C)[C@H](NC(=O)C(=O)Nc1cccc2ccccc12)C(=O)N[C@@H](CC(=O)O)C(=O)COC(=O)c1c(Cl)cccc1Cl | – | 740000 | – | 119000
CC(C)[C@H](NC(=O)C(=O)NCc1ccccc1)C(=O)N[C@@H](CC(=O)O)C(=O)COc1c(F)c(F)cc(F)c1F | 219000 | 388000 | 259000 | 12400
CC(C)[C@H](NC(=O)C(=O)Nc1c(F)c(F)c(F)c(F)c1F)C(=O)N[C@@H](CC(=O)O)C(=O)COc1c(F)c(F)cc(F)c1F | 104000 | 142000 | 236000 | 66200
CC(C)[C@H](NC(=O)C(=O)Nc1ccccc1C(F)(F)F)C(=O)N[C@@H](CC(=O)O)C(=O)COc1c(F)c(F)cc(F)c1F | 745000 | 842000 | 1.94e+06 | 1.63e+06
O=C(O)C[C@H](NC(=O)C(NC(=O)C(=O)Nc1cccc2ccccc12)c1ccccc1)C(=O)COc1c(F)c(F)cc(F)c1F (stereo partly specified) | 230000 | 276000 | 1.08e+06 | 1.31e+06
O=C(O)C[C@H](NC(=O)[C@H](Cc1ccccc1)NC(=O)C(=O)Nc1cccc2ccccc12)C(=O)COc1c(F)c(F)cc(F)c1F | 137000 | 42300 | 1.29e+06 | 1.03e+06
CC(C)C[C@H](NC(=O)C(=O)Nc1cccc2ccccc12)C(=O)N[C@@H](CC(=O)O)C(=O)COc1c(F)cc(F)cc1F | – | 85300 | – | 145000
O=C(O)C[C@H](NC(=O)[C@H](CCc1ccccc1)NC(=O)C(=O)Nc1cccc2ccccc12)C(=O)COc1c(F)c(F)cc(F)c1F | 1.08e+06 | 62900 | 2.68e+06 | 1.83e+06
CC(C)[C@H](NC(=O)C(=O)Nc1cccc2ccccc12)C(=O)N[C@@H](CC(=O)O)C(=O)COc1c(F)cc(F)cc1F | – | 340000 | – | 189000
